Data on 45 compounds can be found in PubChem BioAssay AID652025 (National Center for Advancing Translational Sciences (NCATS), 2013).

Structures are written as SMILES. The list shows a part of the results, in another mix than the full data. Activity calls are given as the source filed them. Rule as the data show it: active = activation above about 50%; inconclusive = mostly about 30% to 49%; inactive = weaker than that.

The test is described as follows: qHTS of IL-2 Activators. Also: 0% is about no effect. Conditions: IL-2 activation reporter assay, cell-based qHTS; active compounds read high; in transgenic mouse T cells; stimulated with anti-CD3/CD4/CD28 beads. The source says: The adaptive immune response against any infectious agent begins with the activation of an antigen specific T cell. This relatively rare and inert ("naive") T cell undergoes a massive proliferative expansion and differentiation process to generate sufficient number of potent pathogen-specific effector T cells. The effector T cells fight the infection by making cytokines and helping other cells to become fully armed as well. If any naive T cell has antigen receptors (TCRs) that can be activated by self peptides, then a variety of regulatory mechanisms kick in to prevent this cell from performing to its full potential. These processes collectively constitute the phenomenon of immunological tolerance and their failure leads to autoimmunity. One arm of tolerance involves generation of biochemical negative feedback downstream of the TCR (tuning). This is especially relevant to self antigens present in the body over long periods of time (chronic), which form the bulk of our proteome. The negative feedback serves to tune the TCR signaling, such that the ambient antigenic stimulation is nullified intracellularly. Unfortunately, this critical machinery serves as a target for chronic viral, bacterial and parasitic infections (as well as tumors), which can evade a robust immune response, simply by allowing T cells to tune down their signaling to pathogen or malignancy derived antigens. As such, disrupting the tuning in such cases would allow the tolerant T cell to function again and deliver a robust effector response.
If a therapeutic can restore responsiveness to the tuned down T cell, even for a short time, they could combat the pathogen without any additional immunization. To that end, we have developed a sensitive HTS T cell based assay based on IL-2. This assay will be screened against the Molecular Libraries Small Molecule Repository (MLSMR) to find small molecules that could elicit this response.
NIH Chemical Genomics Center [NCGC]
NIH Molecular Libraries Probe Centers Network [MLPCN]
Assay Submitter (PI): Ron Schwartz, NIAID
4 microL (750 cells/well) of unstimulated transgenic mouse T cells (columns 1-3,5-48) are dispensed into Aurora LoBase, black clear-bottom 1536-well assay plates; column 4 receives an identical concentration of transgenic memory T cells as a non-tolerant control. Compounds are then transferred via Kalypsys pin tool equipped with 1536-pin array (10 nL slotted pins, V&P Scientific, San Diego, CA). Following addition of compound and a 60 minute incubation, 1 microL of bead stimulation solution ((0.04 micron Fluospheres (Life technologies, CA) coated with 10ug/ml each anti-CD3 and anti-CD4 (clones 2C11 and GK1.5, BD Biosciences, CA) and mixed with 1ug/ml anti-CD28 (clone PV-1, BD biosciences, CA)). columns 2-48) is added to stimulate the IL-2 response pathway; media is instead added to column 1 as an unstimulated control, while PMA/ionomycin (Sigma Aldrich, MO) is added to column 3 as a control for IL-2 tolerance bypass. The plates are then incubated at 37 degrees C for 18 hours. EGFP and DsRed signal are then detected using an Acumen eX3 Explorer fluorescent plate cytometer. All cells are dispensed in cell media containing EHAA (Quality Biologicals, MD), RPMI (Quality Biologicals, MD), Glutamine (Life Technologies, CA), Penicillin/Streptomycin (Quality Biologicals, MD), 2-ME (Sigma Aldrich, MO) and 10% FBS (Gemini Bioproducts, CA) .
On to `CCCCCCCCCCCCCCCC1C[N+](C)(C)CCOP(C)(=O)O1` (stereo not given), for which the activation was inactive: -8.12%. Take `COc1ccccc1OP(C)(=O)Nc1ccc(C)c(C)c1` (stereo not given): the activation was inactive: 0.311%. Regarding `COc1ccc(OP(C)(=O)Nc2ccccc2Br)cc1` (stereo not given), the activation is inactive: 2.46%. On to `Cc1cc(C)cc(OP(C)(=O)Nc2cccc(C(F)(F)F)c2)c1` (stereo not given), for which the activation was inactive: 0.723%. Consider `COc1ccccc1OP(C)(=O)Nc1ccc(C)cc1C` (stereo not given), for which the activation is inactive: 0.272%. The figure for `CP(=O)(Nc1ccccn1)Oc1ccccc1` (stereo not given) is inactive: -1.51%.

In the case of `CCc1ccc(OP(C)(=O)O)cc1`, the activation was inactive: -0.136%. In the case of `O=[N+]([O-])c1cc([N+](=O)[O-])c(Nc2ccccn2)c([N+](=O)[O-])c1`, the activation is inactive: -0.9%. As for `Cc1c(NP(C)(=O)Oc2ccc(C(C)C)cc2)c(=O)n(-c2ccccc2)n1C` (stereo not given), the activation was inactive: -1.36%. The figure for `COc1ccc(OP(C)(=O)Nc2ccccn2)cc1` (stereo not given) is inactive: -2.13%; for `CN(C)CCOC(=O)C(O)(c1ccccc1)C1CCCC1` (stereo not given) it is inactive: 1.15%. The figure for `COc1ccccc1OP(C)(=O)Nc1ccc(Br)cc1` (stereo not given) is inactive: -1.99%; for `CN(C)C(=O)c1c([N+](=O)[O-])cc([N+](=O)[O-])cc1[N+](=O)[O-]` it is inactive: -0.351%; for `CC(C)(C)c1ccc(OP(C)(=O)O)cc1` it is inactive: 0.563%. Take `COc1ccccc1OP(C)(=O)Nc1ccccc1Br` (stereo not given): the activation is inactive: -0.972%.

Consider `CP(=O)(Nc1ccc(Cl)cc1)Oc1ccc(F)cc1` (stereo not given), for which the activation was inactive: 1.61%.

In the case of `O=C(OCCCN1CCCC1)C(O)(c1ccccc1)C1CCCCC1` (stereo not given), the activation was inactive: 0.406%. Consider `COc1ccccc1OP(C)(=O)Nc1c(C)n(C)n(-c2ccccc2)c1=O` (stereo not given), for which the activation is inactive: -0.62%. Turning to `CCc1ccc(OP(C)(=O)Nc2cccnc2)cc1` (stereo not given), the activation is inactive: -0.669%.

For `CP(=O)(Oc1ccccc1)N1CCOC1=O` (stereo not given), the activation is inactive: 1.61%.

With `COc1ccc(OP(C)(=O)Nc2ccc(Br)cc2)cc1` (stereo not given), the activation is inactive: 0.511%. With `CCN(CC)CC(O)COC(=O)C(O)(c1ccccc1)C1CCCCC1` (stereo not given), the activation was inactive: -1.89%. The figure for `CCOC(=O)c1ccc(NP(C)(=O)Oc2ccc(Cl)cc2)cc1` (stereo not given) is inactive: -2.07%.

As to `CP(=O)(OC12CC3CC(CC(C3)C1)C2)OC12CC3CC(CC(C3)C1)C2`, the activation is inactive: -0.597%. Consider `Nc1ccc2c(ccc3cccnc32)n1.O=[N+]([O-])c1cc([N+](=O)[O-])c(O)c([N+](=O)[O-])c1`, for which the activation is inactive: -0.666%. For `Cc1c(C(c2ccc3c(c2)OCO3)c2c(C)n(C)n(-c3ccccc3)c2=O)c(=O)n(-c2ccccc2)n1C.O=[N+]([O-])c1cc([N+](=O)[O-])c(O)c([N+](=O)[O-])c1`, the activation is inactive: -1.36%. Under `O=[N+]([O-])c1ccc(OP2(=O)COCCO2)cc1` (stereo not given) stands inactive: -0.0934%. As to `Cc1cc(-c2cccc3ccccc23)c(C)cn1.O=[N+]([O-])c1cc([N+](=O)[O-])c(O)c([N+](=O)[O-])c1`, the activation was inactive: -2.46%. The figure for `CN(C)CCOC(=O)C(O)(c1ccccc1)C1CCCCC1` (stereo not given) is inactive: -0.18%; for `COc1ccc(NP(C)(=O)Oc2ccccc2OC)cc1` (stereo not given) it is inactive: -1.21%. For `COc1ccc(OP(C)(=O)Nc2cccc(Br)c2)cc1` (stereo not given), the activation was inactive: -2.66%.

As to `Cc1ccccc1NP(C)(=O)Nc1ccccc1C`, the activation was inactive: 0.399%.

`O=[N+]([O-])c1cc([N+](=O)[O-])c(C(F)(F)F)c([N+](=O)[O-])c1O`: the activation was inactive: 0.801%.

In the case of `CP(=O)(Nc1ccc2c(c1)OCCO2)Oc1ccccc1` (stereo not given), the activation is inactive: 1.19%. Under `CCOP(C)(=S)SCC(=O)NC(C)(CC)C(=O)O` (stereo not given) stands inactive: -0.479%; under `CP(=O)(Nc1ccc(SC(F)(F)F)cc1)Oc1ccc(F)cc1` (stereo not given), inactive: 0.293%; under `O=C(OCCN1CCN(CCOCc2ccccc2)CC1)C(O)(c1ccccc1)c1ccccc1`, inactive: -0.0483%.

As to `CP(=O)(Nc1ccccc1F)Oc1ccccc1` (stereo not given), the activation was inactive: -1.84%. The figure for `CC(C)c1ccc(OP(C)(=O)Nc2ccc(SC(F)(F)F)cc2)cc1` (stereo not given) is inactive: -3.38%; for `CP(=O)(Nc1ccccc1)Oc1ccc(F)cc1` (stereo not given) it is inactive: -1.09%. On to `CCCCCOc1ccc(NP(C)(=O)Oc2ccc(Cl)cc2Cl)cc1` (stereo not given), for which the activation was inactive: -3.84%. `Cc1c([N+](=O)[O-])cc([N+](=O)[O-])c(Br)c1[N+](=O)[O-]`: the activation was inactive: 2%. As for `CCN(CC)CCCOC(=O)C(O)(c1ccccc1)C1CCCCC1` (stereo not given), the activation is inactive: 0.0212%. As to `CCOC(=O)c1ccc(NP(C)(=O)Oc2ccc(F)cc2)cc1` (stereo not given), the activation was inactive: 0.395%. `COc1ccc(OP(C)(=O)Nc2ccc(SC(F)(F)F)cc2)cc1` (stereo not given): the activation is inactive: -0.79%.
